## Antibody variant affinities, Ab-14 heavy chain, assay 1

The target is the same throughout: PDVDLGDISGINAS, from the HR2 region of SARS-CoV-2 spike.

Parent: Ab-14, a human scFv built as VH, the linker GGGGSGGGGSGGGGS, VL. Only the CDRs of the heavy chain vary.
VH: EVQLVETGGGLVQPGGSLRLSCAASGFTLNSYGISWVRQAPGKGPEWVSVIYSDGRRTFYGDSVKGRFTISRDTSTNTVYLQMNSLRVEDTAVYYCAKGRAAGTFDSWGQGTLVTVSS
VL: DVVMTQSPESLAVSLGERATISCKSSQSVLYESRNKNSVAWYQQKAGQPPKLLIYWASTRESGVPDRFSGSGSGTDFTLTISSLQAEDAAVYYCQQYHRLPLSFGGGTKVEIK

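Phage display of a naive human antibody library on the peptide gave the parent. The library (AAYL49) carries one to three amino acid substitutions per variant, with no insertions or deletions. In AlphaSeq, yeast of one mating type display the scFv and yeast of the other type display the target. Binding brings cells together so that they mate, and sequencing counts the barcode pairs among the diploids. Read counts were normalised to the haploid input and turned into Kd by a linear fit to BCL2-family pairs of known affinity, for each replicate. The assay was run in three technical replicates.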

Variants are written as CDR1, CDR2 and CDR3 of the heavy chain (limits as in the source). Parent: GFTLNSYGIS, VIYSDGRRTFYGDSVK, GRAAGTFDS.
Affinities are written as log10 Kd with Kd in nM; a lower number is a better binder.
"nd" means that the variant was in the library but no mating with the target was seen in that replicate; the authors take this as a sign of poor binding, and no number exists.
Background: pairings of library AAYL49 with three empty control strains gave a value in 15% of cases (median 4.06, 5th percentile 2.83). Values in that range, when seen in few replicates, are hard to tell from nonspecific mating. Also given: how often the same scFv was detected with the empty control strains, with their mean in brackets.
In this assay the parent's reference entry averaged 0.65; its copy inside this library read 4.11 (one replicate of three).

| # | CDR-H1 | CDR-H2 | CDR-H3 | replicates, log10 nM | control signals |
|---|---|---|---|---|---|
| 1 | MFTLNSYGIS | VIYSRHRRTFYGDSVK | GRAAGTFDS | nd / nd / nd | 0/9 |
| 2 | GNTLNSYGIS | VIYSDGRCTFYGDSVK | GRAAGTFLS | nd / 3.28 / nd | 0/9 |
| 3 | GFTMNQYGIS | VIYSDGRRTFYGDSVK | GRAAGTFDS | 1.34 / 1.62 / 1.78 | 0/9 |
| 4 | GFTLNSSGIS | VIYSDGRRTFYGDSAK | GRAAGTFDC | nd / 4.38 / 4.31 | 4/9 (5.37) |
| 5 | GFTLNHYGIS | VIYSDGRLTFYRDSVK | GRAAGTFDS | 3.18 / nd / nd | 0/9 |
| 6 | GFTLNSYGIS | VINSDLRRTFYGDSVK | GRGAGTFDS | nd / nd / nd | 0/9 |
| 7 | GFTLNSYGIS | VIYSDGRRTFYGRSVK | GRAAGTFDF | 2.49 / 2.67 / 3.36 | 1/9 (3.31) |
| 8 | GFTLNSYGIS | VHYSDGRRCFCGDSVK | GRAAGTFDS | nd / 3.71 / nd | 3/9 (4.68) |
| 9 | GFTLFPYGIS | VIYSDGRRTFYGRSVK | GRAAGTFDS | 4.31 / nd / nd | 0/9 |
| 10 | GFTLNSEGIS | VYYSDGRMTFYGDSVK | GRAAGTFDS | nd / nd / nd | 1/9 (3.24) |
| 11 | GFTLNSYGIS | VIYSDGRRTFYGDSMK | GRAAGTFDS | nd / 2.64 / nd | 0/9 |
| 12 | GFTLNSYGIS | VRYSDGRRTFYGDSVP | WRAAGTFDS | 3.60 / nd / nd | 1/9 (4.32) |
| 13 | GFTLNSYGIS | VIYLDGRRTFYGDQVK | GREAGTFDS | 3.13 / 2.78 / 4.71 | 1/9 (3.43) |
| 14 | GFTLNSYGIS | VIYSDGRRTFYGDSVK | GRAAMTFDF | nd / nd / nd | 1/9 (3.67) |
| 15 | GFTLNSYGIS | VIYSDGRRTNEGDSVK | GRAAGTFDS | nd / nd / nd | 0/9 |
| 16 | GFTLNSYGIS | VIYSRGRRTFYGDRVK | GRAAGTFDS | nd / nd / nd | 1/9 (4.93) |
| 17 | GFTLNSYGIS | VIYSDGHRTFYGDSVK | GRAAGTFDS | nd / nd / 4.87 | 8/9 (4.56) |
| 18 | GFTLLSYGIS | AIYSDGRRTNYGDSVK | GRAAGTFDS | nd / nd / nd | 2/9 (3.73) |
| 19 | GFTLNTYGIS | VIYSDGRRTFTGDSWK | GRAAGTFDS | 2.36 / 3.28 / 1.81 | 0/9 |
| 20 | GNTLFSYGIS | VIYSDGRRTFYGDSVK | GRGAGTFDS | 1.67 / 1.75 / 2.02 | 5/9 (3.93) |
| 21 | GFTLNSYGIS | VIYSDGRRTFYGDSVA | GRAAGTFDS | 1.42 / 1.47 / 1.76 | 1/9 (2.93) |
| 22 | GFTLNSYGIS | VKKSDGRRTFYGDSVK | GRAAGTFDS | nd / nd / nd | 0/9 |
| 23 | GFTLASYGIY | VIYSDGRRTFYGDSVK | GRAAGTADS | nd / nd / nd | 2/9 (4.49) |
| 24 | GFTLNSYGIS | VIYSDGRRTFYGDSVI | ARAAYTFDS | nd / nd / nd | 0/9 |
| 25 | GFTLNSYGIS | VIYSDGIRTFYGDSVK | GMIAGTFDS | 3.20 / 2.75 / 3.89 | 0/9 |
| 26 | GFTLNSYGDS | VIISDGRRTFYGDSVK | GRAAGTFDT | nd / 4.75 / nd | 3/9 (5.17) |
| 27 | GFFLNSYGIS | VIYSDGRRTFYGDSVK | GRAAGTFDS | 1.39 / 1.27 / 1.18 | 2/9 (3.75) |
| 28 | GFTLNSYGIS | VMYSDGRRTFYGWSVQ | GRAAGTFDS | nd / nd / nd | 0/9 |
| 29 | GFTLNSYWIS | VYYSDCRRTFYGDSVK | GRAAGTFDS | nd / nd / nd | 0/9 |
| 30 | GFTLNSYGIS | VVYFSGRRTFYGDSVK | GRAAGTFDS | 3.04 / nd / nd | 0/9 |
| 31 | GFTLNSYGCS | VIYSDGRRTFYGDSVK | GRAQGTFDS | 2.19 / nd / nd | 0/9 |
| 32 | GFTNNSNGIS | VCYSDGRRTFYGDSVK | GRAAGTFDS | nd / nd / nd | 1/9 (3.46) |
| 33 | GFTLNSYGIS | VIYSDGQRTFYGISVK | GRAAGTFDE | nd / 2.94 / nd | 0/9 |
| 34 | GFTLNSYQIS | VIYSDGRRTFYGDSVK | RRAAGTFDS | nd / nd / nd | 0/9 |
| 35 | GFELNSYYLS | VIYSDGRRTFYGDSVK | GRAAGTFDS | nd / nd / nd | 0/9 |
| 36 | GFTLNSYGIS | VIYSIGRRTFYGDCVN | GRAAGTFDS | nd / 4.53 / nd | 1/9 (3.33) |
| 37 | GFTLNSYGIS | VIYSDGRRTEYGDSVK | GRAAGLFDI | nd / nd / nd | 0/9 |
| 38 | GFNLNSYGIS | VIYSYGRETFYGDSVK | GRAAGTFDS | nd / nd / nd | 0/9 |
| 39 | DFTLNSYGIS | VIYSNGRRTFYGDSVK | PRAAGTFDS | nd / nd / nd | 0/9 |
| 40 | GFTLNSYGIS | VIYSDQRRTFYGDSVK | GRTAGWFDS | nd / nd / 6.05 | 1/9 (3.47) |
| 41 | GFTLNSYGIS | VIYSDGRRTFYGYSVK | GRAAGTFDS | 2.67 / 3.55 / nd | 2/9 (3.56) |
| 42 | GFTLNSAGIS | VIYSEGRRTFYGDSVK | HRAAGTFDS | nd / nd / nd | 0/9 |
| 43 | GFTLNSYGIS | VYYSLGRRTFYGDSVK | GRAAGTMDS | nd / nd / nd | 0/9 |
| 44 | GFTLNSPGIS | VIYSDGRRTFYGDSVK | CRAAGTFDS | nd / nd / nd | 0/9 |
| 45 | GFTLNSYGIS | VIISDGRRTFYGDSVK | VIAAGTFDS | nd / nd / nd | 0/9 |
| 46 | GFTLNSYGIS | VIYSDGRTTFYGDSVK | GRAAGTFDD | nd / nd / nd | 1/9 (2.54) |
| 47 | GFTLNSYGIS | VIYSCGRRTFSGDSVK | GRAAGTCDS | nd / nd / nd | 1/9 (3.79) |
| 48 | HFTLNSYEIS | VGYSDGRRTFYGDSVK | GRAAGTFDS | 4.72 / 3.46 / nd | 1/9 (3.49) |
| 49 | GFTLASYGIS | VIYSDGRRTFYGHSVK | GYAAGTFDS | 1.92 / 2.06 / 2.55 | 0/9 |

6 of these entries, quoted again:

CDR-H1	CDR-H2	CDR-H3	replicates, log10 nM	control signals
GFTLNSYWIS	VYYSDCRRTFYGDSVK	GRAAGTFDS	nd / nd / nd	0/9
HFTLNSYEIS	VGYSDGRRTFYGDSVK	GRAAGTFDS	4.72 / 3.46 / nd	1/9 (3.49)
GFELNSYYLS	VIYSDGRRTFYGDSVK	GRAAGTFDS	nd / nd / nd	0/9
GFTLNSEGIS	VYYSDGRMTFYGDSVK	GRAAGTFDS	nd / nd / nd	1/9 (3.24)
GFTLNSYGIS	VIYSIGRRTFYGDCVN	GRAAGTFDS	nd / 4.53 / nd	1/9 (3.33)
DFTLNSYGIS	VIYSNGRRTFYGDSVK	PRAAGTFDS	nd / nd / nd	0/9

Values reported by Engelhart et al. 2022, doi:10.1038/s41597-022-01779-4 (FLAb copy).